Literature values as cited in PMC11338008, “Development and validation of CYP26A1 inhibition assay for high-throughput screening” (Biotechnology journal, 2024).

System: recombinant CYP26A1
Conditions: cited from earlier work

| SMILES | IC50 [nM] |
| --- | --- |
| C=C(c1ccc(C(=O)O)cc1)c1cc2c(cc1C)C(C)(C)CCC2(C)C [Bexarotene] | 12300 |
| Clc1cccc(C(c2ccc3[nH]cnc3c2)n2ccnc2)c1 (centres unmarked) [Liarozole dihydrochloride] | 2100 |
| C/C(=C\c1ccc(C(=O)O)cc1)c1ccc2c(c1)C(C)(C)CCC2(C)C [TTNPB/Arotinoid acid, Arotinoid acid] | 3700 |
| CCC(CC)C(c1ccc(Nc2nc3ccccc3s2)cc1)n1cncn1 (centres unmarked) [R115866/Talarozole, Talarozole] | 5 |
| CC(=O)N1CCN(c2ccc(OCC3COC(Cn4ccnc4)(c4ccc(Cl)cc4Cl)O3)cc2)CC1 (centres unmarked) [Ketoconazole] | 550 |

Counter-ions that a name gives are not always drawn.
